Values quoted from earlier work as cited in US20220025053A1, “Methods of Inhibiting Metastasis in Cancer” (Wisconsin Alumni Research Foundation, priority 2018, published 2022).

Settings: in vivo; cited from earlier work

Maraviroc
Side effects reported: effects that have been reported include liver problems and skin
